# Reference: patent US11845740B2, “Glutaminyl cyclase inhibitors and the use thereof in treatment of various diseases” (OBSCHESTVO S OGRANICHENNOI OTVETSTVENNOSTIYU …, priority 2017, dated 2023)
# Protein sequences, listed by entry. Tags and fused reporters are not part of them. Lines headed by an entry give the natural chain unless they say otherwise; changes in a name come on top.
# UniProt Q9NXS2: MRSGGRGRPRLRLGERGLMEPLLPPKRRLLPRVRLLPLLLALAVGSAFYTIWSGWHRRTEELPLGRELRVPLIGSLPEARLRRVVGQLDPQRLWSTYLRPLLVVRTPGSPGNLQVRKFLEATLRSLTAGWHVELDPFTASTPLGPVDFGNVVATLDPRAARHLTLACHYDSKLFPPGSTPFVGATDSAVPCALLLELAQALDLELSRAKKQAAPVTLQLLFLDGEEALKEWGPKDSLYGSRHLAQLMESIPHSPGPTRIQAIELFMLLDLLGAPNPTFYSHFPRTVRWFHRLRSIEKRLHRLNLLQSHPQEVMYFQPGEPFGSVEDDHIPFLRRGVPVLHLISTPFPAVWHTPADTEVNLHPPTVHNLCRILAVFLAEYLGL
# Molecular target: recombinant intracellular human glutaminyl cyclase (Homo sapiens (Human), UniProt Q9NXS2)
# Test: Enzymatic activity of human glutaminyl cyclase in vitro (fluorescent substrate Gln-bNA)
# Type: biochemical
# Conditions: 25° C., 50 μM Gln-bNA, pH 8.0
IC50,Ki,Compound
20 µM,11 µM,"O=C(CCC(=O)NCCc1cnc[nH]1)NCCc1cnc[nH]1 [Compound V, N,N′-bis[2-(1H-imidazol-4-yl)ethyl]succinamide]"
5.4 µM,3 µM,"O=C(CCCC(=O)NCCc1cnc[nH]1)NCCc1cnc[nH]1 [Compound VI, N,N′-bis[2-(1H-imidazol-4-yl)ethyl]glutaramide]"
7.3 µM,4 µM,"CC(CC(=O)NCCc1cnc[nH]1)CC(=O)NCCc1cnc[nH]1 [Compound VIII, N,N′-bis[2-(1H-imidazol-4-yl)ethyl]-3-methylpentanediamide]"

# Continued, compound first:
Compound,IC50,Ki
"O=C(CCCCC(=O)NCCc1cnc[nH]1)NCCc1cnc[nH]1 [Compound VII, N,N′-bis[2-(1H-imidazol-4-yl)ethyl]adipamide]",4.4 µM,2 µM
"CC(C)(CC(=O)NCCc1cnc[nH]1)CC(=O)NCCc1cnc[nH]1 [Compound IX, N,N′-bis[2-(1H-imidazol-4-yl)ethyl]-3,3-dimethylpentanediamide]",5.7 µM,3.17 µM
